Binding of CDR-mutated scFvs to a peptide of the spike HR2 region

Source: Engelhart et al. 2022 (doi:10.1038/s41597-022-01779-4), MIT Lincoln Laboratory and A-Alpha Bio; data file from the FLAb repository.

All variants were tested on one target, the spike HR2 peptide PDVDLGDISGINAS (SARS-CoV-2).

Ab-91 is the parent antibody, in scFv form: VL, then the linker GGGGSGGGGSGGGGS, then VH. The light chain is unchanged in all variants.
VL: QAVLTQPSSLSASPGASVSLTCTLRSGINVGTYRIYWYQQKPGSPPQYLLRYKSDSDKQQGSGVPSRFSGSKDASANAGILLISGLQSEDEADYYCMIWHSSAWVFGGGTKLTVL
VH: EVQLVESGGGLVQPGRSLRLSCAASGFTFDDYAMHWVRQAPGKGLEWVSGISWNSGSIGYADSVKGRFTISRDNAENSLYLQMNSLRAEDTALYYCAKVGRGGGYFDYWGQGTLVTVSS

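Phage display of a naive human antibody library on the peptide gave the parent. The library (AAYL51) carries one to three amino acid substitutions per variant, with no insertions or deletions. In AlphaSeq, yeast of one mating type display the scFv and yeast of the other type display the target. After mating in shaken culture at 30 °C for 16 h, diploids were selected and their barcode pairs sequenced. Read counts were normalised to the haploid input and turned into Kd by a linear fit to BCL2-family pairs of known affinity, for each replicate. Mating was done three times.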

Changes read parent residue, position, new residue, counted from the first residue of the VH shown.
This list gathers variants with a substitution at Y32 (VH, numbered from residue 1).
Values are log10 of the apparent Kd in nM; lower means stronger binding.
Replicates are averaged; those with no signal do not enter the mean.
A pair that was not seen in that replicate is written "nd"; this usually means weak binding, but a binder can also be missed.
The list is sorted by this average, lowest first, undetected variants last.
In this assay the parent's reference entry averaged 1.86; its copy inside this library read 0.88.
Background: pairings of library AAYL51 with three empty control strains gave a value in 21% of cases (median 4.54, 5th percentile 3.26). Values in that range, when seen in few replicates, are hard to tell from nonspecific mating. For each scFv, signals with the empty controls are counted beside the result.

For D30V/Y32V/V64I, the assay gave 0.59, 0.60, 0.48 (mean 0.55; controls 2 of 9). The variant D31H/Y32H/F106R showed 0.91, 0.84, 0.18 (mean 0.64; controls 3 of 9). For Y32F/W53L/G56R, the assay gave 2.09, 2.50, 1.44 (mean 2.01; controls 0 of 9). The variant Y32P/W53T/N54S showed nd, nd, 2.59 (controls 1 of 9). With Y32F/W53V/D62I the result was nd, nd, 2.91 (controls 3 of 9). For F29I/D30C/Y32G, the assay gave 2.96, 2.98, 3.00 (mean 2.98; controls 1 of 9). With Y32G/S52R/G56D the result was 3.44, nd, nd (controls 1 of 9).

For Y32A/W53D/S63L, the assay gave nd, 3.51, nd (controls 1 of 9). With Y32D/G100T/F106E the result was 4.21, nd, 4.03 (mean 4.12; controls 3 of 9). With Y32Q/I51E/W53C the result was 3.96, 4.44, nd (mean 4.20; controls 1 of 9). With Y32L/H35P/S55C the result was 4.24, nd, nd (controls 4 of 9). The variant Y32W showed 4.40, nd, nd (controls 1 of 9). With F27H/D30V/Y32K the result was nd, 4.49, nd (controls 5 of 9). With F27A/D30H/Y32Q the result was 4.70, 4.35, nd (mean 4.52; controls 4 of 9).

For Y32E/A61I/D107C, the assay gave 4.57, nd, nd (controls 2 of 9). The variant Y32N/A33W/G104A showed 5.93, 3.78, 4.06 (mean 4.59; controls 4 of 9). The variant Y32R/K65G/F106W showed 4.71, nd, nd (controls 2 of 9). For Y32R/K65A/Y108G, the assay gave nd, 4.74, nd (controls 2 of 9). The variant Y32C/S55R/G56V showed 4.98, 4.57, nd (mean 4.77; controls 3 of 9). The variant Y32I/Y60N/V99L showed nd, nd, 4.79 (controls 1 of 9). The variant Y32W/G50C/W53P gave 4.93, 4.77, nd (mean 4.85; controls 4 of 9).

For Y32V/Y60I/D62Q, the assay gave nd, 3.81, 6.05 (mean 4.93; controls 8 of 9). For Y32F/S55V/G100A, the assay gave nd, 5.28, nd (controls 3 of 9). The variant Y32H/F106V showed 5.29, nd, nd (controls 2 of 9). The variant G26R/Y32V/G56W showed 5.60, 5.11, nd (mean 5.36; controls 3 of 9). For Y32G/H35K/F106W, the assay gave 4.72, 6.99, nd (mean 5.86; controls 3 of 9). The variant Y32E/H35A/S63L showed nd, nd, nd (controls 0 of 9). The variant Y32F/K65G/G102M showed nd, nd, nd (controls 0 of 9).

With Y32C/D62Y/F106R the result was nd, nd, nd (controls 0 of 9). The variant D30F/Y32H/G103Q showed nd, nd, nd (controls 2 of 9). With G26W/Y32R/I51R the result was nd, nd, nd (controls 1 of 9). For F27S/Y32G/A61R, the assay gave nd, nd, nd (controls 0 of 9). The variant Y32H/G56M/G103M gave nd, nd, nd (controls 0 of 9). The variant Y32V/I51E/S57F showed nd, nd, nd (controls 4 of 9).